Reference: US10407430B2, “Janus kinase 1 selective inhibitor and pharmaceutical use thereof” (YANG JI CHEMICAL CO., LTD., priority 2015, dated 2019)

Amino acid sequences for entries named in this document (tags omitted). A change or cut given only in a name is not applied to a line headed by its entry.
UniProt P29597: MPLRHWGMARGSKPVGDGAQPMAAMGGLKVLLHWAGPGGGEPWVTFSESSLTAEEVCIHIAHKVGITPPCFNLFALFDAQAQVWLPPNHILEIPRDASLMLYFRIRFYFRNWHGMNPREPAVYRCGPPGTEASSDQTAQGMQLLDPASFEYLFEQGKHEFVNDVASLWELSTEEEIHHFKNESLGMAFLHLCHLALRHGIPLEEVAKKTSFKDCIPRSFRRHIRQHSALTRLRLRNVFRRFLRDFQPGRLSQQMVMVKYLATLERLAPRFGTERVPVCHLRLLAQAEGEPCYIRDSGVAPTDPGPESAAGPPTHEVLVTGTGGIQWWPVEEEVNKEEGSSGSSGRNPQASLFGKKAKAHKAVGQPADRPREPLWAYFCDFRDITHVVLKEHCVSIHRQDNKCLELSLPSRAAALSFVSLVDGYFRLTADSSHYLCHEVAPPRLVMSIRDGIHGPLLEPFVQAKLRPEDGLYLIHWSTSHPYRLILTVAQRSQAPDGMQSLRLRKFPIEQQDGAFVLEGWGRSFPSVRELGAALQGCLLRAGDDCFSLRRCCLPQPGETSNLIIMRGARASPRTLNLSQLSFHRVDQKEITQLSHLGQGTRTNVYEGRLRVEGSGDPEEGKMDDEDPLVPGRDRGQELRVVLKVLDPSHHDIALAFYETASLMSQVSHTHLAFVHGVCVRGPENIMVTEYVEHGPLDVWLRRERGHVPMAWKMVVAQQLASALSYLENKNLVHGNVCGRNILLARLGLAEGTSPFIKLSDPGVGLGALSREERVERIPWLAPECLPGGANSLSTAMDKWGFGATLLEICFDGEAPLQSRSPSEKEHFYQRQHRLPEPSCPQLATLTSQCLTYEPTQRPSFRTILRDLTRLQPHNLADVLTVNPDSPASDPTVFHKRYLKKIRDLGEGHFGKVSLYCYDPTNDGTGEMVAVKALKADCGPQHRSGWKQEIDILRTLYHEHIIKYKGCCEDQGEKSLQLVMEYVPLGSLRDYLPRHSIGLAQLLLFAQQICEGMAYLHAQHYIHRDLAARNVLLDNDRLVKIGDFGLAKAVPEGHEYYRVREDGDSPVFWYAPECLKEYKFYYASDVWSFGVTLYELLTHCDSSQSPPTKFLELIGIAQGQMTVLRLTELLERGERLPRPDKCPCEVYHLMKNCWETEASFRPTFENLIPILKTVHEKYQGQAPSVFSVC

Molecular target: T1, Human TYK2 (Homo sapiens, UniProt P29597)
T1 construct: purchased Millipore, Germany
Assay: In-vitro kinase inhibition test, TYK2
Assay type: biochemical
Settings: for inhibition at 1 µM: read-out: TYK2 kinase-phosphorylation inhibitory level (% inhibition)

| IC50 | inhibition at 1 µM | Compound |
| --- | --- | --- |
| 111 nM | 84% | CN(c1ncnc2[nH]ccc12)[C@@H]1CCN(C(=O)CC#N)C1 [Example 1, (R)-3-(3-(methyl(7H-pyrrolo[2,3-d]pyrimidine-4-yl)amino)pyrrolidine-1-yl)-3-oxopropanenitrile] |
| – | 2% | CN(c1ncnc2[nH]ccc12)[C@H]1CCN(C(=O)CC#N)C1 [Example 31, (S)-3-(3-(methyl(7H-pyrrolo[2,3-d]pyrimidine-4-yl)amino)pyrrolidine-1-yl)-3-oxopropanenitrile] |
